What was measured:
[1] = tested on: CYP450; conditions: known inducers used for validation; cited from earlier work
[2] = tested on: CYP 14 sub-family; conditions: human hepatocytes, 48 hours exposure; PB 1 microM, RIF 50 microM

CO[C@H]1/C=C/O[C@@]2(C)Oc3c(C)c(O)c4c(O)c(c(/C=N/N5CCN(C)CC5)c(O)c4c3C2=O)NC(=O)/C(C)=C\C=C\[C@H](C)[C@H](O)[C@@H](C)[C@@H](O)[C@@H](C)[C@H](OC(C)=O)[C@@H]1C [rifampicine, Rifampicine]
CYP450 induced [1]: CYP 3A | variation of CYP 14 sub-family (hybridization signal) [2]: no variation
